The assay addresses 5-hydroxytryptamine receptor 1A (Rattus norvegicus, UniProt P19327). As to the kind of experiment: In vitro inhibitory concentration against radioligand [3H]8-OH-DPAT binding to 5-hydroxytryptamine 1A receptor in rat hippocampal membrane. The assay is classed as cell membranes, Hippocampus. An outline of the steps: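 Rat hippocampal membranes (male SD rats, ~150 g) were washed in 50 mM Tris-HCl pH 7.4, including 10 min at 37 °C. Incubation buffer contained 4 mM CaCl2 and 10 μM pargyline. [3H]-8-OH-DPAT 1 nM final, 30 min at 25 °C; nonspecific binding defined by 10 μM 5-HT. Filtered onto GF/B and counted; 50% inhibitory concentration from fitted curves.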

Protein sequences, listed by entry. Tags and fused reporters are not part of them.
UniProt P19327, whole entry: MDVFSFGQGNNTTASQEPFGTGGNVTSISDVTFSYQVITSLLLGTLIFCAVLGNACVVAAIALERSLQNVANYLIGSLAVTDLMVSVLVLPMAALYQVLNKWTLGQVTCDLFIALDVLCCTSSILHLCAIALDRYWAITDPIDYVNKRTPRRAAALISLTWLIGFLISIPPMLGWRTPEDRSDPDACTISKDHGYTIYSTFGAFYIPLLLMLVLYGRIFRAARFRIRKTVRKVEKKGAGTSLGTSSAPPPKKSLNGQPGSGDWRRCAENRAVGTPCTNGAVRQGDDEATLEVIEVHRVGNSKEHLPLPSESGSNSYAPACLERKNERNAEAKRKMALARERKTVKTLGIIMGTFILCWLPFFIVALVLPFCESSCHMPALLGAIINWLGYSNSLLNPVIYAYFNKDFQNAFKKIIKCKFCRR

Usually IC50 stands for the concentration at which inhibition is half-maximal. High values mean a need for much substance, low ones inhibition by little substance. With `NCCc1c[nH]c2ccc(O)cc12` [SEROTONIN], the IC50 was 3 nM.

Source of the values: ChEMBL document CHEMBL1129944, “[[(Arylpiperazinyl)alkyl]thio]thieno[2,3-d]pyrimidinone derivatives as high-affinity, selective 5-HT1A receptor ligands” (J Med Chem, 1997).
